{
  "source": "paper PMC8713996",
  "about": "“An anti-tuberculosis compound screen using a zebrafish infection model identifies an aspartyl-tRNA synthetase inhibitor” (Disease Models & Mechanisms, 2021)",
  "test_system": "E. coli GK1161434",
  "conditions": "zebrafish, in vivo",
  "data": [
    {"smiles": "CO/N=C(\\C(=O)N[C@@H]1C(=O)N2C(C(=O)O)=C(CSc3nc(=O)c(=O)[nH]n3C)CS[C@H]12)c1csc(N)n1", "note": "[ceftriaxone]", "values": [
      {"measurement": "Survival of E. coli-infected embryos", "result": "did not increase the survival"}
    ]}
  ]
}
